The subject of this assay is β-tubulin. The experiment in a line: β-tubulin polymerization inhibition (β-tubulin assay kit) in MCF-7 cells. In kind it is cell-based. The protocol:
S4.2.1. Cytotoxic activity evaluation
To measure the cytotoxic actvity of the synthesized acrylamide-PABA derivatives 4a-j in breast MCF-7 (ATCC Cat. No. HTB-22), liver HepG2 (ATCC Cat No. HB-8065), and normal breast MCF-10A (ATCC Cat. No. CRL 10317) cell lines, cell viability assay was assessed using MTT assay method. Cells at density of 1 x 104 were seeded in a 96-well plate at 37 °C for 24 h under 5% CO2. After incubation, the cells were treated with different concentrations of the test acrylamide-PABA hybrids 4a-j and incubated for 24 h, then 20 µl of MTT solution at 5 mg/mL was applied and incubated for 4 h at 37 °C. Dimethyl sulphoxide (DMSO) in volume of 100 µl was added to each well to dissolve the purple formazan that had formed. The color intensity of the formazan product, which represents the growth condition of the cells, is quantified by using an ELISA plate reader (EXL 800, USA) at 570 nm absorbance. The experimental conditions were carried out with at least three replicates, and the experiments were repeated at least three times.
S4.2.2. β-tubulin inhibition Assay […]
according to manufacturer’s instructions

As to `COc1cc2c(c(OC)c1OC)-c1ccc(OC)c(=O)cc1[C@@H](NC(C)=O)CC2` [Col, Colchicine, reference compound], the “percentage inhibition of β-tubulin polymerization” value came to 84.33%.

These data come from paper PMC12131314, “Design, synthesis and cytotoxic research of a novel antitumor model based on acrylamide–PABA analogs via β-tubulin inhibition” (RSC Advances, 2025).
